Patent US7982042B2, “Thiozanthene derivatives as delta-opioid modulators” (priority 2003, dated 2011)

Amino acid sequences for entries named in this document (tags omitted).
UniProt P41143, whole entry: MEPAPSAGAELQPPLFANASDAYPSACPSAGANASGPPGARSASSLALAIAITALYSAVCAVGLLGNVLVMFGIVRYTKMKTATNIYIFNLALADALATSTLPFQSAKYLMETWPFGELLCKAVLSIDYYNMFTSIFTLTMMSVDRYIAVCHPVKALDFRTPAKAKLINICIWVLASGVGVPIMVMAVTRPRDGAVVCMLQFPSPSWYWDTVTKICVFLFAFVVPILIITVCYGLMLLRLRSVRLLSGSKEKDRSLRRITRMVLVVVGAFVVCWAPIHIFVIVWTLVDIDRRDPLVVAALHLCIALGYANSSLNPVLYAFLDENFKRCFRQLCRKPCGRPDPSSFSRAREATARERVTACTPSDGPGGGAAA
UniProt P33535, whole entry: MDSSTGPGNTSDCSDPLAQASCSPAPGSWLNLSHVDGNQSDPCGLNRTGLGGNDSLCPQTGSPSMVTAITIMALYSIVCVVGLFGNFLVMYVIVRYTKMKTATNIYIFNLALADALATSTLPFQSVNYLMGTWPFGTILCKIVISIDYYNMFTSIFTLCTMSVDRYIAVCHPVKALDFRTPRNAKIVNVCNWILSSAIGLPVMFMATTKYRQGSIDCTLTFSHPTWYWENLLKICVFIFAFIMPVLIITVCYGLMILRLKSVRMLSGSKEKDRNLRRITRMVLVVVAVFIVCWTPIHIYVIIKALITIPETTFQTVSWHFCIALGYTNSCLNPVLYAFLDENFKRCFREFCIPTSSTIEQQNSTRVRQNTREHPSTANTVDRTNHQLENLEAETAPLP
UniProt P33533, whole entry: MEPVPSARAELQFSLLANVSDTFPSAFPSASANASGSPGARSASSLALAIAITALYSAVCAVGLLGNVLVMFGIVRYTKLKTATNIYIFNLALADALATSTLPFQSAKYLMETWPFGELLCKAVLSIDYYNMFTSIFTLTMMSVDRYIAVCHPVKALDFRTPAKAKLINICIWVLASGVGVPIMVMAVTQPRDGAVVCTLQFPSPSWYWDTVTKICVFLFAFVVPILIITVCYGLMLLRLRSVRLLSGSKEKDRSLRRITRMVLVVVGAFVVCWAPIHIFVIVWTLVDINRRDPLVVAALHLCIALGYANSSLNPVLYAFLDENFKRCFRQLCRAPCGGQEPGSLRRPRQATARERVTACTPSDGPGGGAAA
UniProt P32300, whole entry: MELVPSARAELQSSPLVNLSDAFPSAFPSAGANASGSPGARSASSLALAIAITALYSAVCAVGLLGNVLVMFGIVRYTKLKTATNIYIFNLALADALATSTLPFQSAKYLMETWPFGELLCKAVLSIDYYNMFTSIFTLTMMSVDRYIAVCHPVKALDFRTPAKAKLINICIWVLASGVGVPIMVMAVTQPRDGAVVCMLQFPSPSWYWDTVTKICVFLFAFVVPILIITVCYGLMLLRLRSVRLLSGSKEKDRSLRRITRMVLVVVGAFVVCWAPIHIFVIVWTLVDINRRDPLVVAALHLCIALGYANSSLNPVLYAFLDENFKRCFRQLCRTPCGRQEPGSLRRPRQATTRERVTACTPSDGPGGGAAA

Key:
[1] = target: human delta opioid receptor (Homo sapiens, UniProt P41143); assay: [35S]GTPγS binding assay in CHO-hδ cell membranes; assay type: biochemical; settings: read-out: hDOR GTPγS EC50; human delta opioid receptor GTPγS functional assay
[2] = target: Rat brain mu opioid receptor (Rattus norvegicus, UniProt P33535); assay: Rat brain mu opioid receptor binding assay ([3H]DAMGO); settings: read-out: rMOR Ki
[3] = target: Rat brain delta opioid receptor (Rattus norvegicus, UniProt P33533); assay: Rat brain delta opioid receptor binding; settings: read-out: rDOR Ki
[4] = target: delta opioid receptor (Mus musculus, UniProt P32300); assay: [35S]GTPγS binding assay in NG108-15 cell membrane; assay type: biochemical; settings: read-out: DOR GTPγS EC50; delta opioid receptor GTPγS functional assay
[5] = tested on: mice; assay: Mouse Abdominal Irritant Test (MAIT); settings: acetylcholine bromide i.p. 30 min after drug

| SMILES | EC50 [1] [nM] | Ki [2] [nM] | Ki [3] [nM] | EC50 [4] [nM] | MAIT % I @ 150 μmol [5] [%] |
| --- | --- | --- | --- | --- | --- |
| CCN(CC)C(=O)c1ccc2c(c1)Oc1ccccc1C2=C1CC2CCC(C1)N2Cc1c[nH]cn1 (single isomer, unassigned) | 4.79 | > 100 | 0.88 |  |  |
| CCN(CC)C(=O)c1ccc2c(c1)Oc1ccc(O)cc1C2=C1CC2CCC(C1)N2 |  | 3100 | 44.4 |  |  |
| CCNC(=O)c1ccc2c(c1)OCc1ccccc1C2=C1CCN(CC2CC2)CC1 |  | 4750 | 2040 |  |  |
| CCNC(=O)c1ccc2c(c1)OCc1ccccc1C2=C1CCN(Cc2ccccn2)CC1 |  | 1150 | 60.9 |  |  |
| CCN(CC)C(=O)c1ccc2c(c1)Sc1ccccc1C2=C1CC2CCC(C1)N2Cc1c[nH]cn1 [Compound 74] |  | 200 | 0.122 |  |  |
| CC=C(C)CN1CCC(=C2c3ccccc3COc3cc(C(=O)NCC)ccc32)CC1 |  | 1810 | 271 |  |  |
| CCNC(=O)c1ccc2c(c1)OCc1ccccc1C2=C1CCN(Cc2c[nH]cn2)CC1 |  | 2480 | 218 |  |  |
| CCN(CC)C(=O)c1ccc2c(c1)Oc1ccccc1C2=C1CC2CCC(C1)N2Cc1cnc[nH]1 (single isomer, unassigned) [71] |  | 2770 | 5.43 |  |  |
| CCN(CC)C(=O)c1ccc2c(c1)Oc1ccc(-c3ccccc3)cc1C2=C1CC2CCC(C1)N2 |  | 37800 | 2890 |  |  |
| CCN(CC)C(=O)c1ccc2c(c1)Oc1ccccc1C2=C1CC2CCC(C1)N2CCO | 14.3 | > 100 | 4.57 |  |  |
| CCN(CC)C(=O)c1ccc2c(c1)Oc1ccc(-c3cccnc3)cc1C2=C1CC2CCC(C1)N2 |  | 18700 | 1950 |  |  |
| CCN(CC)C(=O)c1ccc2c(c1)Oc1ccc(-c3c(C)noc3C)cc1C2=C1CC2CCC(C1)N2 |  | 6700 | 1350 |  |  |
| CCCCN(C)C(=O)c1ccc2c(c1)Oc1ccccc1C2=C1CC2CCC(C1)N2 |  | 884 | 12 | 77.9 |  |
| CCNC(=O)c1ccc2c(c1)Oc1ccccc1C2=C1CC2CCC(C1)N2 (single isomer, unassigned) [Compound 55] |  | 715 | 68.5 |  | 20 |
| CCN(CC)C(=O)c1ccc2c(c1)Oc1ccccc1C2=C1CC2CCC(C1)N2Cc1cnc[nH]1 (single isomer, unassigned) [72] |  | 375 | 0.17 |  |  |
| CCN(CC)C(=O)c1ccc2c(c1)Oc1ccc(OC)cc1C2=C1CC2CCC(C1)N2 |  | > 10000 | 1020 |  |  |
| CCN(CC)C(=O)c1ccc2c(c1)Oc1ccc(-c3cccn3C(=O)OC(C)(C)C)cc1C2=C1CC2CCC(C1)N2 |  | 15200 | 1080 |  |  |
| CCN(CC)C(=O)c1ccc2c(c1)Oc1cc(C)ccc1C2=C1CC2CCC(C1)N2 |  | 2950 | 3.12 |  |  |
